We go through 3 molecules from US20220024975A1 (ARROWHEAD PHARMACEUTICALS, published 2022).

By UniProt entry, the sequences of proteins in these tests, tags left out. Residues count along the entry.
UniProt P06756, 31-1048, chain 1 of 2: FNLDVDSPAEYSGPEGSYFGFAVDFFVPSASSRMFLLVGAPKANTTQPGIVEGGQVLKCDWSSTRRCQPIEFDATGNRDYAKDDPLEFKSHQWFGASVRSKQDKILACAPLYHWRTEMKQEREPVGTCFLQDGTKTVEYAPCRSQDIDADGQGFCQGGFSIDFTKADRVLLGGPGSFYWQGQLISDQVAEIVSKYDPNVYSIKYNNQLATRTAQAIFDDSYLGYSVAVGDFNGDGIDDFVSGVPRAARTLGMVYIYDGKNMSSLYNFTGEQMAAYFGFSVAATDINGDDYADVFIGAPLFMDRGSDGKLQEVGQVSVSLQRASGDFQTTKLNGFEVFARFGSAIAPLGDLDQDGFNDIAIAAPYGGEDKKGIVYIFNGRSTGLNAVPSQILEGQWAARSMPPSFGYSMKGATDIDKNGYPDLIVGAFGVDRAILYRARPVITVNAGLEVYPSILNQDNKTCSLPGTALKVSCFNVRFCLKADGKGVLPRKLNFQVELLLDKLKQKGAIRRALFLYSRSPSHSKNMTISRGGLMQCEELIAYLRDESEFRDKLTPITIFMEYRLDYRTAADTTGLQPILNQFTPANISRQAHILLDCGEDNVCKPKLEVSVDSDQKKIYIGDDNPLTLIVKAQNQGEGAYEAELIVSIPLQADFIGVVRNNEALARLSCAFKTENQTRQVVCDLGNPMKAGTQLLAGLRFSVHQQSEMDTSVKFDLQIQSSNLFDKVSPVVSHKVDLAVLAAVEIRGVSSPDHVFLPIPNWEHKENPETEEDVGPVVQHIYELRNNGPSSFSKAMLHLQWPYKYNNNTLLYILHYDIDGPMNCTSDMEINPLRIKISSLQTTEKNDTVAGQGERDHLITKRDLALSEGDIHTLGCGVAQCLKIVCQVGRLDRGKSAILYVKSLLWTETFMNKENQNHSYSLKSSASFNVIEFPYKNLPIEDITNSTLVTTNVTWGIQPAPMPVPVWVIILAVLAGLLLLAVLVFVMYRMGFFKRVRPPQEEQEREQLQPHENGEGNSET
αvβ6 integrin, UniProt P18564, 22-788, chain 2 of 2: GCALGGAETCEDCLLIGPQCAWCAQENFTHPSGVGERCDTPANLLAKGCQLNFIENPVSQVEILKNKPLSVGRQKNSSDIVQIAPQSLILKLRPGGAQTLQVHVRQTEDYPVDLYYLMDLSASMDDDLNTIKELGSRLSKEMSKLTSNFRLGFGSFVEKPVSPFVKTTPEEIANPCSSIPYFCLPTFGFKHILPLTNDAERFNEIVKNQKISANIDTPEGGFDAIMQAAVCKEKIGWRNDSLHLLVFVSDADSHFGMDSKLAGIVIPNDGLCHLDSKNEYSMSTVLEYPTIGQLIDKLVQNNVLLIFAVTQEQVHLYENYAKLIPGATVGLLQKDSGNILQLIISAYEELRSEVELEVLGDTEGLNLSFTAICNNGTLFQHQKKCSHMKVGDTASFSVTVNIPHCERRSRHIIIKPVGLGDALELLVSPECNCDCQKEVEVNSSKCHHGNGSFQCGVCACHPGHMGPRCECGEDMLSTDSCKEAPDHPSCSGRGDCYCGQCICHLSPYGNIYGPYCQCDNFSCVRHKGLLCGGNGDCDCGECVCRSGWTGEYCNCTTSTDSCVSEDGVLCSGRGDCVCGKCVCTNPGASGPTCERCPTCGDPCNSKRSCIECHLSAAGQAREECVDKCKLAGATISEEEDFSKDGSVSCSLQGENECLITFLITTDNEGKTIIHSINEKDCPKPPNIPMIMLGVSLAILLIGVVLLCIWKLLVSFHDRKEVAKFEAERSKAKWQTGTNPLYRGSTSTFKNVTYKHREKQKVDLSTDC

For experiment [1], the target named is αvβ6 integrin (human) (UniProt P06756). The experiment in a line: flow cytometry, Cy5-polymer conjugate 5 µg/ml, H2009 cells. (In general: In flow cytometry, cells or beads pass a laser one at a time.)
In experiment [2] the target is T1, αvβ6 integrin (human, UniProt P06756 31-1048; P18564 22-788).
T1 construct: whole, on cells; target is the endogenous integrin on αvβ6 positive-control cell lines; also called Integrin alpha-v beta-6
Described as above. An excerpt:
B. αvβ6 ligand binding (flow cytometric analyses). To assess for specificity of binding of the αvβ6 ligands to the αvβ6 integrin, each αvβ6 ligand or negative control peptide was conjugated to a Cy5-labeled polymer (as described above) and evaluated for binding to cells. […] H2009 (human lung epithelial adenocarcinoma) and CAPAN-2 (human pancreas adenocarcinoma) cells served as the αvβ6 positive-control cell lines. Cells were detached from culturing flasks with Accutase, washed in PBS, and seeded into 5 ml polystyrene round-bottom tubes at 200,000 cells in 200 μl complete media (culturing media with supplements and fetal calf serum). αvβ6 ligand-polymer conjugates or no-ligand-polymer conjugates were added at 5 μg/ml (polymer-Cy5 concentration) to cells, mixed and incubated at 37° C. for 3 h. […] Samples were analyzed on a BD Biosciences Canto II cytometer equipped with a violet (405 nm), blue (488 nm) and red (633 nm) lasers.
Viable cells were initially gated as the SYTOX blue negative population on the C detector with the violet laser. These viable cells were then assessed for conjugate binding/uptake with the red laser as the Mean Fluorescence Intensity (MFI) of the Cy5 fluorophore. […] A specific MFI Ratio (sMFIr) for each αvβ6 ligand was determined by the formula: […]

As for Ac-…ibL (peptide), the MFI (specific MFI ratio, sample/no-ligand) in experiment [1] was 3.9.

With Ac-…buL (peptide), the MFI (specific MFI ratio, sample/no-ligand) in experiment [1] was found to be 4.26.

As for RGDLATLR, in experiment [2], the “MFI (specific MFI ratio, sample/no-ligand)” value worked out at 4.6 ratio.
